Membrane permeability of cyclic peptides

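The data file gives no further conditions (lipid, pH, time, direction or concentration), and values from different papers need not be comparable. The list need not hold all peptides of the study. Entries at the database's floor value (log10 P of -10) are not listed.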

PAMPA is the parallel artificial membrane permeability assay, which has no cells and reads passive diffusion. Permeability is given as log10 of P in cm/s; higher (less negative) is more permeable.

| PAMPA (log10 cm/s) | structure (SMILES) |
|---|---|
| -5.56 | CC(C)C[C@@H]1C(=O)N[C@@H](Cc2ccccc2)CC(=O)N2CCC[C@@H]2C(=O)N(C)[C@H](CC(C)C)C(=O)N[C@@H](Cc2ccccc2)C(=O)N2CCC[C@H]2C(=O)N(C)[C@H](C)C(=O)N1C |
| -5.90 | CC(C)C[C@@H]1C(=O)N[C@@H](Cc2ccccc2)C(=O)N2CCC[C@@H]2C(=O)N(C)[C@H](C)C(=O)N[C@H](CC(C)C)C(=O)N(Cc2ccccc2)CC(=O)N2CCC[C@H]2C(=O)N1C |
| -5.41 | CCCN1CC(=O)N[C@@H](CC(C)C)C(=O)N(Cc2ccccc2)CC(=O)N2CCC[C@H]2C(=O)N(C)[C@H](CC(C)C)C(=O)N[C@@H](Cc2ccccc2)C(=O)N2CCC[C@H]2C1=O |
| -6.25 | CC(C)C[C@@H]1NC(=O)[C@@H]2CCCN2C(=O)C[C@H](Cc2ccccc2)NC(=O)[C@@H](CC(C)C)N(C)C(=O)[C@@H](C)NC(=O)[C@H]2CCCN2C(=O)[C@H](Cc2ccccc2)NC1=O |
| -5.41 | CC(C)C[C@@H]1C(=O)N(Cc2ccccc2)CC(=O)N2CCC[C@@H]2C(=O)N[C@H](CC(C)C)C(=O)N[C@@H](Cc2ccccc2)C(=O)N2CCC[C@H]2C(=O)N(C)[C@@H](C)C(=O)N1C |
| -6.17 | CC(C)C[C@@H]1NC(=O)[C@H](C)NC(=O)[C@H]2CCCN2C(=O)[C@H](Cc2ccccc2)NC(=O)[C@@H](CC(C)C)N(C)C(=O)[C@@H]2CCCN2C(=O)[C@H](CC(C)C)N(C)C1=O |
| -5.62 | CC(C)C[C@@H]1C(=O)N2CCC[C@@H]2C(=O)N(C)[C@H](CC(C)C)C(=O)N[C@@H](Cc2ccccc2)C(=O)N2CCC[C@@H]2C(=O)N(C)[C@H](C)C(=O)N(Cc2ccccc2)CC(=O)N1C |
| -6.07 | CCCN1CC(=O)N[C@H](CC(C)C)C(=O)N(C)[C@@H](CC(C)C)C(=O)N2CCC[C@H]2C(=O)N[C@@H](CC(C)C)C(=O)N[C@@H](Cc2ccccc2)C(=O)N2CCC[C@H]2C1=O |
| -5.83 | CC(C)C[C@@H]1C(=O)N(C)[C@@H](CC(C)C)C(=O)N2CCC[C@H]2C(=O)N(C)[C@H](CC(C)C)C(=O)N[C@@H](Cc2ccccc2)C(=O)N2CCC[C@H]2C(=O)N(C)[C@H](C)C(=O)N1C |
| -4.75 | CC(C)C[C@@H]1C(=O)N[C@@H](Cc2ccccc2)CC(=O)N2CCC[C@H]2C(=O)N(C)[C@@H](CC(C)C)C(=O)N[C@@H](Cc2ccccc2)C(=O)N(C)[C@@H](C)C(=O)N1C |
| -5.91 | CC(C)C[C@H]1NC(=O)[C@H](CC(C)C)N(C)C(=O)[C@@H](C)NC(=O)[C@H]2CCCN2C(=O)[C@H](Cc2ccccc2)NC(=O)[C@H](CC(C)C)N(C)C(=O)[C@@H]2CCCN2C1=O |
| -5.69 | CCCN1CC(=O)N[C@@H](CC(C)C)C(=O)N[C@H](CC(C)C)C(=O)N2CCC[C@H]2C(=O)N(Cc2ccccc2)CC(=O)N[C@@H](Cc2ccccc2)C(=O)N2CCC[C@@H]2C1=O |
| -5.73 | CC(C)C[C@@H]1C(=O)N[C@@H](Cc2ccccc2)C(=O)N2CCC[C@@H]2C(=O)N[C@@H](C)C(=O)N[C@H](CC(C)C)C(=O)N(C)[C@@H](CC(C)C)C(=O)N2CCC[C@@H]2C(=O)N1C |
| -5.50 | CC(C)C[C@H]1C(=O)N(C)[C@@H](CC(C)C)C(=O)N2CCC[C@@H]2C(=O)N(C)[C@@H](CC(C)C)C(=O)N[C@@H](Cc2ccccc2)C(=O)N2CCC[C@H]2C(=O)N[C@@H](Cc2ccccc2)CC(=O)N1C |
| -5.69 | CC(C)C[C@H]1C(=O)N[C@@H](Cc2ccccc2)C(=O)N2CCC[C@@H]2C(=O)N(C)[C@@H](C)C(=O)N(Cc2ccccc2)CC(=O)N[C@@H](Cc2ccccc2)CC(=O)N2CCC[C@@H]2C(=O)N1C |
| -7.26 | CC(C)C[C@@H]1NC(=O)[C@@H]2CCCN2C(=O)[C@H](CC(C)C)NC(=O)[C@@H](CC(C)C)NC(=O)[C@@H](C)NC(=O)[C@H](Cc2ccccc2)NC1=O |
| -6.29 | CC(C)C[C@@H]1C(=O)N[C@@H](Cc2ccccc2)C(=O)N[C@@H](C)C(=O)N[C@H](CC(C)C)C(=O)N[C@@H](Cc2ccccc2)CC(=O)N2CCC[C@@H]2C(=O)N1C |
| -5.22 | CCCN1CC(=O)N(C)[C@@H](CC(C)C)C(=O)N[C@H](CC(C)C)C(=O)N2CCC[C@@H]2C(=O)N[C@@H](CC(C)C)C(=O)N[C@@H](Cc2ccccc2)C1=O |
| -5.48 | CC(C)C[C@@H]1NC(=O)[C@@H](CC(C)C)N(C)C(=O)[C@H](C)NC(=O)[C@H](Cc2ccccc2)NC(=O)CN(Cc2ccccc2)C(=O)[C@@H]2CCCN2C1=O |

Source: CycPeptMPDB (Li et al. 2023), which took these values from Townsend et al. 2020, doi:10.26434/chemrxiv.13335941.v1.